The structures appear in SMILES notation.

For the test, the species on record is Homo sapiens. The test is described as follows: Selectivity for human mu opioid receptor to human NOP receptor.
Take `COc1ccc(C)c(OC(CCN2CCC(n3c(=O)n(Cc4noc(C)n4)c4ccccc43)CC2)C(C)C)c1` (centres undefined): the Selectivity ratio amounted to 5.8.

As for `COc1ccc(C)c(OC(CCN2CCC(n3c(=O)n(Cc4nnn[nH]4)c4ccccc43)CC2)C(C)C)c1` (centres undefined), the Selectivity ratio turned out to be 1.1.

For the molecule `COc1ccc(C)c(OC(CCN2CCC(n3c(=O)n(Cc4cc(C)on4)c4ccccc43)CC2)C(C)C)c1` (centres undefined), the Selectivity ratio came to 6.6.

As for `COc1ccc(C)c(OC(CCN2CCC(n3c(=O)n(Cc4ncsn4)c4ccccc43)CC2)C(C)C)c1` (centres undefined), the Selectivity ratio came to 58.9.

Consider `COc1ccc(C)c(OC(CCN2CCC(n3c(=O)n(Cc4c[nH]cn4)c4ccccc43)CC2)C(C)C)c1` (centres undefined), for which the Selectivity ratio was found to be 57.5.

Consider `COc1ccc(C)c(OC(CCN2CCC(n3c(=O)n(Cn4ccnc4)c4ccccc43)CC2)C(C)C)c1` (centres undefined), for which the Selectivity ratio was 28.8.

In the case of `COc1ccc(C)c(OC(CCN2CCC(n3c(=O)n(Cc4ccccn4)c4ccccc43)CC2)C(C)C)c1` (centres undefined), the Selectivity ratio was 10.7.

For `COc1ccc(C)c(OC(CCN2CCC(n3c(=O)n(Cc4csc(C)n4)c4ccccc43)CC2)C(C)C)c1` (centres undefined), the Selectivity ratio was found to be 2.2.

With `COc1ccc(C)c(OC(CCN2CCC(n3c(=O)n(Cn4ccnc4C)c4ccccc43)CC2)C(C)C)c1` (centres undefined), the Selectivity ratio is 25.1.

As to `COc1ccc(C)c(OC(CCN2CCC(n3c(=O)n(Cc4noc(C(C)(C)C)n4)c4ccccc43)CC2)C(C)C)c1` (centres undefined), the Selectivity ratio is 0.4.

Turning to `COc1ccc(C)c(OC(CCN2CCC(n3c(=O)n(Cc4ncn(C)n4)c4ccccc43)CC2)C(C)C)c1` (centres undefined), the Selectivity ratio came to 1.

In the case of `COc1ccc(C)c(OC(CCN2CCC(n3c(=O)n(Cc4cscn4)c4ccccc43)CC2)C(C)C)c1` (centres undefined), the Selectivity ratio came out at 35.5.

As to `COc1ccc(C)c(OC(CCN2CCC(n3c(=O)n(Cc4ncco4)c4ccccc43)CC2)C(C)C)c1` (centres undefined), the Selectivity ratio amounted to 21.4.

`COc1ccc(C)c(OC(CCN2CCC(n3c(=O)n(Cc4cnn[nH]4)c4ccccc43)CC2)C(C)C)c1` (centres undefined): the Selectivity ratio was found to be 22.9.

The record behind these values is ChEMBL document CHEMBL1143970, “Structure-activity relationships and CoMFA of N-3 substituted phenoxypropyl piperidine benzimidazol-2-one analogues as NOP receptor agonists with analgesic properties” (Bioorg Med Chem, 2008).
